{"source": "patent US9541834B2", "about": "“Ionic thermal acid generators for low temperature applications” (Rohm and Haas Electronic Materials LLC, priority 2012, dated 2017)", "origin": "cited, not measured here", "conditions": "pKa of conjugate acid (BH)+ of the base of the TAG, aqueous solution, about room temperature", "data": [{"substance": "Pyridinium perfluorobutanesulfonate [Pyridinium PFBuS]", "values": [{"measurement": "pKa (base)", "value": 5.14}]}]}
